# From patent US4062948A, “Dihydromocimycin antibiotics” (Gist-Brocades N.V., priority 1970, dated 1977)
# Experiments:
# [1] = test system: microorganism causing Treponema dysentery; assay: experiments against the microorganism causing Treponema dysentery
# [2] = stability against pelletizing
structure (smiles),measurement,setting,value
CC=CC=CC1OC(O)(C(CC)C(=O)NCC=CC=C(C)C(OC)C(C)C2OC(C=CC=CC=C(C)C(=O)C3=C(O)CCNC3=O)C(O)C2O)C(O)C(O)C1(C)C (centres unmarked) [dihydromocimycin],activity against the microorganism causing Treponema dysentery compared with tylosin,[1],markedly higher activity against the microorganism than tylosin
same,stability against pelletizing,[2],good stability
